Laboratory results as given in patent US5460942A, “The catalytic moiety of the glucose-6-phosphatase system: the gene and protein and related mutations” (The United States of America as represented by the …, priority 1993, dated 1995).

Legend:
[1] = substrate: O=P(O)(O)OC[C@H]1OC(O)[C@@H](O)[C@@H](O)[C@@H]1O; assay: cells, lysate or membranes named; settings: other: deoxycholate-disrupted microsomes of pSVLmG-6-Pase-transfected COS-1 cells; mean ± SEM; pH 6.5
[2] = substrate: O=P(O)(O)OC[C@H]1OC(O)[C@H](O)[C@@H](O)[C@@H]1O; assay: cells, lysate or membranes named; settings: other: deoxycholate-disrupted microsomes of pSVLmG-6-Pase-transfected COS-1 cells; mean ± SEM; pH 6.5

B1: murine G-6-Pase (Mus musculus) (protein)
chain: MEEGMNILHDFGIQSTRYLQVNYQDSQDWFILVSVIADLRNAFYVLFPIWFHLKETVGINLLWVAVVGDWFNLVFKWILFGQRPYWWVLDTDYYSNSSVPIIKQFPVTCETGPGSPSGHAMGAAGVYYVMVTSTLAIFRGKKKPTYGFRCLNVILWLGFWAVQLNVCLSRIYLAAHFPHQVVAGVLSGIAVAETFSHIRGIYNASLRKYCLITIFLFGFALGFYLLLKGLGVDLLWTLEKAKRWCERPEWVHLDTTPFASLFKNLGTLLGLGLALNSSMYRKSCKGELSKLLPFRFACIVASLVLLHLFDSLKPPSQVELIFYILSFCKSATVPFASVSLIPYCLARILGQTHKKSL
Km [1]: 670 µM
Km [2]: 650 µM
